Experimental findings from US20120189670A1, “PHARMACEUTICAL COMPOSITIONS AND FORMULATIONS INCLUDING INHIBITORS OF THE PLECKSTRIN HOMOLOGY DOMAIN AND METHODS FOR USING SAME” (priority 2009, published 2012) are described below.

Each structure is given as a SMILES string.

One experiment relates to HT-29 lung cancer cells. Kind of experiment: MTT cell survival in HT-29 cells (Table 2). The note with it: Homo sapiens. It is filed as cell-based. An excerpt: AKT inhibition leads to cellular apoptosis.
For the next experiment, the target named is T1, PH domain of PDK1 (Homo sapiens, UniProt O15530).
T1 sequence (O15530 459-550 limits assumed): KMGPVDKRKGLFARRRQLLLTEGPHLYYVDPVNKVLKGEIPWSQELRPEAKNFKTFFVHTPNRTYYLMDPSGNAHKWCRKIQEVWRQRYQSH
Kind of experiment: SPR direct binding, KD, PDK1 PH domain. The note with it: Table 10, SPR; read-out: PDK1 PH mKD.

Usually IC50 stands for the concentration at which inhibition is half-maximal. High values mean a need for much substance, low ones inhibition by little substance. Regarding `CC1=NN(C(=O)c2ccc(Cl)cc2)C(=O)C1/N=N/c1ccc(S(=O)(=O)Nc2ncccn2)cc1` (stereo not drawn) [Compound 316, (E)-4-((1-(4-chlorobenzoyl)-3-methyl-5-oxo-4,5-dihydro-1H-pyrazol-4-yl)diazenyl)-N-(pyrimidin-2-yl)benzenesulfonamide], in the experiment with HT-29 lung cancer cells, the IC50 amounted to 25 µM. At PH domain of PDK1, the Kd is 31.3 µM.

With `CC1=NN(C(=O)c2ccccc2)C(=O)C1/N=N/c1ccc(S(=O)(=O)Nc2ncccn2)cc1` (stereo not drawn) [Compound 331], the Kd on PH domain of PDK1 was 0.17 ± 0.1 µM.
